The source of these data is paper PMC12102759 (Protein Science : A Publication of the Protein Society, 2025).

In one assay the test system is G3BP1 NFT2. In kind it is binding, human. To be noted: DMS-CoV phage selection against G3BP1, log2 of summed NGS counts.
Another assay concerns YES SH3. The format is binding, human.

As for Ac-AERITFGGPSDSTGSY-NH2 [N P13E], in the assay on G3BP1 NFT2, the “NGS_counts log2_total” value was 9.56.

On to Ac-APLITFGGPSDSTGSY-NH2 [N R14L], for which the “NGS_counts log2_total” value in the assay on G3BP1 NFT2 worked out at 13.86.

For Ac-APRIEFGGPSDSTGSY-NH2 [N T15E], in the assay with G3BP1 NFT2, the “NGS_counts log2_total” value was 7.81.

Consider Ac-APRITFGAPSDSTGSY-NH2 [N G19A], for which the “NGS_counts log2_total” value with G3BP1 NFT2 was 11.54.

Ac-APRITFGGFSDSTGSY-NH2 [N P20F]: in the assay on G3BP1 NFT2, the “NGS_counts log2_total” value was found to be 6.48.

In the case of Ac-APRITFGGPSDSTGSY-NH2 [N wt], the “NGS_counts log2_total” value in the assay on G3BP1 NFT2 was 7.72.

As for Ac-APRITFGGPYDSTGSY-NH2 [N S21Y], the “NGS_counts log2_total” value in the assay on G3BP1 NFT2 came out at 9.51.

Turning to Ac-DPRITFGGPSDSTGSY-NH2 [N A12D], in the assay with G3BP1 NFT2, the “NGS_counts log2_total” value is 9.73.

On to “TSSIQSRPLPSPPKFT S11W (TSSIQSRPLPWPPKFT)”, for which the “PSSM value of the single amino acid variant (DMS by phage display)” value (“PSSM value” below) with YES SH3 is 0.003236.

Regarding “TSSIQSRPLPSPPKFT S11Y (TSSIQSRPLPYPPKFT)”, in the assay with YES SH3, the “PSSM value” value is on record as 0.004211.

TSSIQSRPLPSPPKFT T1A (ASSIQSRPLPSPPKFT): in the assay on YES SH3, the “PSSM value” value is given as 0.238.

Turning to TSSIQSRPLPSPPKFT T1D (DSSIQSRPLPSPPKFT), in the assay with YES SH3, the “PSSM value” value came out at 0.01283.

Take TSSIQSRPLPSPPKFT T1E (ESSIQSRPLPSPPKFT): the “PSSM value” value in the assay with YES SH3 turned out to be 0.02999.

For TSSIQSRPLPSPPKFT T1F (FSSIQSRPLPSPPKFT), the “PSSM value” value with YES SH3 is on record as 0.

Take TSSIQSRPLPSPPKFT T1G (GSSIQSRPLPSPPKFT): the “PSSM value” value in the assay on YES SH3 is on record as 0.

Take TSSIQSRPLPSPPKFT T1H (HSSIQSRPLPSPPKFT): in the assay with YES SH3, the “PSSM value” value amounted to 0.06859.

For TSSIQSRPLPSPPKFT T1I (ISSIQSRPLPSPPKFT), the “PSSM value” value in the assay with YES SH3 is recorded as 0.006316.

With TSSIQSRPLPSPPKFT T1K (KSSIQSRPLPSPPKFT), the “PSSM value” value in the assay with YES SH3 worked out at 0.

Consider TSSIQSRPLPSPPKFT T1L (LSSIQSRPLPSPPKFT), for which the “PSSM value” value in the assay with YES SH3 turned out to be 0.007808.

Turning to TSSIQSRPLPSPPKFT T1M (MSSIQSRPLPSPPKFT), in the assay with YES SH3, the “PSSM value” value is 0.03829.

As for TSSIQSRPLPSPPKFT T1N (NSSIQSRPLPSPPKFT), the “PSSM value” value in the assay on YES SH3 came to 0.01294.

TSSIQSRPLPSPPKFT T1P (PSSIQSRPLPSPPKFT): in the assay with YES SH3, the “PSSM value” value stood at 0.

For TSSIQSRPLPSPPKFT T1Q (QSSIQSRPLPSPPKFT), in the assay on YES SH3, the “PSSM value” value came to 0.03696.

As to TSSIQSRPLPSPPKFT T1R (RSSIQSRPLPSPPKFT), the “PSSM value” value with YES SH3 was 0.01076.

As to TSSIQSRPLPSPPKFT T1S (SSSIQSRPLPSPPKFT), the “PSSM value” value in the assay on YES SH3 was determined as 0.0362.

In the case of TSSIQSRPLPSPPKFT T1T, the “PSSM value” value in the assay with YES SH3 was found to be 0.1043.

As for TSSIQSRPLPSPPKFT T1V (VSSIQSRPLPSPPKFT), the “PSSM value” value in the assay with YES SH3 was determined as 0.2962.

As to TSSIQSRPLPSPPKFT T1W (WSSIQSRPLPSPPKFT), in the assay on YES SH3, the “PSSM value” value worked out at 0.04128.

With TSSIQSRPLPSPPKFT T1Y (YSSIQSRPLPSPPKFT), the “PSSM value” value with YES SH3 stood at 0.05954.
